Compound activity from PubChem BioAssay.
E-selectin induc: E-selectin induction in HUVECs, primary screen, imaging, HUVEC, immunofluorescence imaging, single point. actives 0.37% (n = 260,000). activation, % at 7.58 µM. normalized: neutral wells 0, TNF-alpha wells 100. P16581;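 active = mean E-selectin-positive cell signal at least 10% of the positive control, reached in at least 60% of replicates, without over 20% cell loss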
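Test system: HUVEC; input: 3,000 HUVEC/well; measured by: immunofluorescence imaging; read-out: % PE-positive cells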
RAD54 inh: inhibitors of human RAD54 branch migration, primary screen, biochemical, fluorescence, single point; DNA repair and recombination protein RAD54-like (Homo sapiens), Q92698; inhibition, % at 10.4 µM; actives 0.14% (n = 360,000); RAD54 Holliday junction branch migration, FAM/BHQ fluorescence;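 active = mean normalized replicate activity at least 40 and at least half of replicates scoring 40 or more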;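 note: 0% = median of neutral control wells and 100% = median of positive control wells; inhibitors cause a drop in the FAM fluorescence signal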
RAD52 inh: RAD52 DNA annealing inhibitors, primary screen, biochemical, FRET, single point, set 2; actives 0.46% (n = 360,000); AID 651710, 2012; inhibition, % at 18.7 µM; recombinant RAD52 DNA annealing, FRET fluorescence; DNA repair protein RAD52 homolog (Homo sapiens), P43351;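 active = every replicate showing at least 50% inhibition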
Yeast UUG start-1: alters start codon recognition fidelity in yeast. 350,000 tested, 0.13% active. activity score, % at 18.7 µM. S. cerevisiae UUG-firefly luciferase reporter, luminescence/redox ratio;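 active = replicate mean at a twofold rise or more, about +100% in these data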;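 also: firefly luciferase made from a UUG start codon reports start codon fidelity; reporter light over untreated wells divided by growth signal over untreated wells; some hits fall short of that in this replicate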
SIRT5 block: SIRT5 desuccinylase inhibitors, primary screen, biochemical, fluorescence imaging, single point, set 5; NAD-dependent protein deacylase sirtuin-5, mitochondrial (Homo sapiens), Q9NXA8; actives 1.1% (n = 330,000); Purified SirT5, succinyl-peptide AMC, trypsin-coupled fluorescence; inhibition, % at 15 µM; in the data active = inhibition above about 15%
MLL AF4-AF9 inh: inhibitors of AF4 peptide binding to AF9, primary screen, biochemical, AlphaScreen, biotin-AF4 peptide, FLAG-AF9, single point; inhibition, % at 10 µM; Protein AF-9 (Homo sapiens), P42568; actives 0.47% (n = 350,000);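 active = every replicate reaching a set inhibition limit, whatever the replicate mean, cut at about 25% in these data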;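 note: 0% = plate neutral control median and 100% = total signal loss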
Yeast UUG start-2: enhancers of UUG start codon usage in yeast, dose response, S. cerevisiae, UUG firefly luciferase, cherry-pick, set 2; shares compounds with Yeast UUG start-1; luminescence, 4 h; 100% means double the DMSO signal; activation, % at 38 µM; AID 652061, 2013; 540 tested, under 10 active;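 active = signal increase whose fitted curve reaches an absolute level of 40 at a concentration under 10 µM; inactive = activity opposite to the expected increase, or the rest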
* = called active by the depositor; i = inactive; · = no result. Compounds with a hit are over-represented: about 1.8% of the library has one in this group of screens.

Sequences of proteins named here, by UniProt entry; tags and fusion partners are left off.
DNA repair and recombination protein RAD54-like (Homo sapiens), Q92698, UniProt Q92698, whole entry, looked up: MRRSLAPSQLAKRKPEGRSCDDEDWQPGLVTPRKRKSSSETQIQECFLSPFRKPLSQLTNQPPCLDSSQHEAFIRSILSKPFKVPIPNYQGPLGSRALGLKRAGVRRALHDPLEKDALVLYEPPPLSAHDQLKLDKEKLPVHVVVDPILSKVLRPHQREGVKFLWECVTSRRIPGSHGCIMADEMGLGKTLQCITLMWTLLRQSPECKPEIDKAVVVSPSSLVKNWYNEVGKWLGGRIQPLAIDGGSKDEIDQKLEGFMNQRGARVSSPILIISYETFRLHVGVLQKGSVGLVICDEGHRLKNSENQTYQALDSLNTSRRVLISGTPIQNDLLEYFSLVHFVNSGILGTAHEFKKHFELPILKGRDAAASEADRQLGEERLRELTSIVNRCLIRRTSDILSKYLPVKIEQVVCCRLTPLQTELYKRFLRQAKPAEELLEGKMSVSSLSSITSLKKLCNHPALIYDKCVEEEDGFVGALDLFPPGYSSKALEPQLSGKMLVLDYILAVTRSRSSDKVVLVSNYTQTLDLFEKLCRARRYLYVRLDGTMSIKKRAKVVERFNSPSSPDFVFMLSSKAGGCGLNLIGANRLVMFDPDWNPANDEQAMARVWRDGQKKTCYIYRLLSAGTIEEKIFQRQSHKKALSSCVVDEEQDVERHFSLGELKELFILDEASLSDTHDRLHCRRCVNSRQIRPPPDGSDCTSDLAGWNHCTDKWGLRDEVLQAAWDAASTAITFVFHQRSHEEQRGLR

No.	smiles	E-selectin induc	RAD54 inh	RAD52 inh	Yeast UUG start-1
1	CCCc1cc(C(=O)N/N=C/c2ccc(C)o2)c2ccccc2n1	·	-37.0	·	-12.5
2	CCCc1cc(C(=O)N/N=C/c2ccc(CC)s2)c2ccccc2n1	·	1.5	·	412.9*
3	CCN(CC)S(=O)(=O)c1cccc(-c2nnc(SCC(N)=O)n2CCc2ccccc2)c1	·	-9.5	5.2	-10.2
4	NC(=O)CSc1nnc(-c2ccncc2)n1CCc1ccccc1	·	-1.7	·	173.1*
5	O=C(c1cc(Cl)cc(Cl)c1)N1CCC2CC1c1cc(-c3ccc4c(c3)OCO4)ccc12 (stereo unspecified)	0.0	2.6	-12.9	active
6	CCCC#Cc1cnc2c(c1)C(=O)N([C@H](C)CO)C[C@H](C)[C@H](CN(C)C(=O)NCCC)O2	0.2	3.2	0.0	4.5
7	CCCNC(=O)C[C@@H]1CC[C@H]2[C@@H](COC[C@H](O)CN2Cc2cccc(F)c2)O1	-0.1	5.2	3.5	5.5
8	CCCNC(=O)C[C@@H]1CC[C@@H]2[C@H](COC[C@@H](O)CN2Cc2cccc(F)c2)O1	-0.1	-3.9	2.0	106.7*
9	COc1cccc(C(C(=O)NCc2ccco2)N(Cc2ccco2)C(=O)Cn2nnc3ccccc32)c1 (stereo unspecified)	·	-10.7	·	-13.8
10	COc1ccc(OC)c(C(C(=O)NCc2ccco2)N(C(=O)Cn2nnc3ccccc32)C(C)C)c1 (stereo unspecified)	·	1.1	·	196.3*
11	Cc1ccccc1NC(=O)/C(=C/c1ccccc1)c1ccccc1	·	-8.2	-10.1	102.1*
12	O=C(Nc1ccccc1)/C(=C/c1ccccc1)c1ccccc1	·	-9.6	·	-14.5
13	Cc1cc(C)c(-n2nnnc2SCC(=O)c2cccs2)c(C)c1	·	-2.3	-5.6	active
14	Cn1nnnc1SCC(=O)c1cccs1	·	-4.0	·	-18.0
15	COc1ccc(NC(=O)Nc2ccc3c(c2)C(=O)N([C@H](C)CO)C[C@H](C)[C@@H](CN(C)C)OCCCC[C@H](C)O3)cc1	0.0	6.4	-0.1	5.8

No.	SIRT5 block	MLL AF4-AF9 inh	Yeast UUG start-2
1	·	·	·
2	·	·	0.0
3	-4.0	·	·
4	·	·	-1.9
5	5.3	-0.7	9.3
6	-0.5	-2.9	·
7	-0.4	-2.3	·
8	-1.4	1.6	i
9	·	·	·
10	·	·	17.5
11	-2.8	·	-1.1
12	·	·	·
13	-4.2	·	-3.1
14	·	·	·
15	-4.2	3.9	·

The listing continues.
No.	smiles	E-selectin induc	RAD54 inh	RAD52 inh	Yeast UUG start-1
16	O=C1CCC(=O)N1OCCCOc1ccc2c(c1)CCC2	·	-2.3	·	active
17	C[C@H](CO)N1C[C@H](C)[C@@H](CN(C)C(=O)c2ccncc2)Oc2ncc(C3=CCCCC3)cc2C1=O	0.2	-5.4	3.4	10.3
18	O=C(Cc1ccccc1)NC(NNc1ccccc1)(C(F)(F)F)C(F)(F)F	·	1.5	·	480.8*
19	CC=Cc1ccc2n(c1=O)C[C@@H]1[C@@H](CO)[C@H](C(=O)NCCC)[C@H]2N1CCC(F)(F)F (mixture of isomers)	-0.1	-42.3	-6.3	·
20	CCOC(=O)C1CCN(Cc2cnc(Oc3ccc(C(C)(C)C)cc3)s2)CC1	-2.4	-26.1	·	126.7*
21	CCOC(=O)C1CCN(Cc2cnc(NC(=O)OC)s2)CC1	·	-4.4	·	-10.7
22	CO[C@H]1CN(C)C(=O)c2ccc(NC(=O)C3CCCC3)cc2OC[C@H](C)N(C)C[C@H]1C	-0.1	0.6	-6.8	5.7
23	C[C@@H]1CN([C@@H](C)CO)C(=O)c2cc(/C=C/c3ccccc3)cnc2O[C@H]1CN(C)Cc1ccccc1	0.1	1.1	36.4	0.2
24	CC(C)c1cn(CC[C@@H]2CC[C@@H](NC(=O)C3CCCC3)[C@H](CO)O2)nn1	-0.2	8.0	1.6	12.8
25	O=C(CCN1CCCCC1)NCC[C@H]1CC[C@H](NC(=O)C2CCCC2)[C@H](CO)O1	0.6	-18.4	20.0	166.9*
26	CC(C)c1cn(CC[C@@H]2CC[C@H](NC(=O)C3CCCCC3)[C@H](CO)O2)nn1	0.0	-12.5	0.2	100.1*
27	Cc1ccccc1S(=O)(=O)NCC[C@H]1CC[C@@H](NC(=O)C2CCCCC2)[C@@H](CO)O1	-0.4	0.6	-1.0	9.2
28	COc1ccccc1S(=O)(=O)N[C@H]1CC[C@H](CCNC(=O)C2CCCC2)O[C@H]1CO	0.0	-49.8	8.9	224.0*
29	Cc1ccccc1S(=O)(=O)NCC[C@H]1CC[C@H](NC(=O)C2CCCCC2)[C@H](CO)O1	0.0	-16.0	38.5	210.9*
30	CCC(=O)N(C)C[C@@H]1Oc2cc(/C=C/c3ccccc3)ccc2S(=O)(=O)N([C@H](C)CO)C[C@@H]1C	1.0	-3.7	6.6	22.8

No.	SIRT5 block	MLL AF4-AF9 inh	Yeast UUG start-2
16	·	·	-0.8
17	-1.4	0.7	·
18	·	·	9.0
19	-18.1	-0.3	·
20	·	·	4.0
21	·	·	·
22	-1.5	-1.7	·
23	1.5	20.3	·
24	1.9	1.7	·
25	-3.6	5.0	i
26	1.2	-0.6	i
27	-2.4	-1.6	·
28	1.8	-4.9	i
29	-5.2	9.4	i
30	7.7	11.1	·

Profiles as entered above.
Entry for Cc1ccccc1S(=O)(=O)NCC[C@H]1CC[C@@H](NC(=O)C2CCCCC2)[C@@H](CO)O1 → E-selectin induc = -0.4; RAD54 inh = 0.6; RAD52 inh = -1.0; Yeast UUG start-1 = 9.2; SIRT5 block = -2.4; MLL AF4-AF9 inh = -1.6; Yeast UUG start-2 = ·
Entry for O=C(Cc1ccccc1)NC(NNc1ccccc1)(C(F)(F)F)C(F)(F)F → E-selectin induc = ·; RAD54 inh = 1.5; RAD52 inh = ·; Yeast UUG start-1 = 480.8*; SIRT5 block = ·; MLL AF4-AF9 inh = ·; Yeast UUG start-2 = 9.0

Next section
No.	smiles	E-selectin induc	RAD54 inh	RAD52 inh	Yeast UUG start-1
31	C[C@@H]1CCCCO[C@H](CN(C)C(=O)NC2CCCCC2)[C@H](C)CN([C@@H](C)CO)C(=O)c2cc(NS(=O)(=O)c3ccc(Cl)cc3)ccc2O1	·	-3.7	-5.5	2.0
32	O=C(O)C(c1ccccc1)C(c1ccccc1)c1ccccc1 (stereo unspecified)	·	-0.3	2.7	430.9*
33	COc1ccc(CCNC(=O)CNC(=O)c2nn(-c3ccc(OC)c(OC)c3)c(=O)c3ccccc23)cc1OC	-0.1	4.9	4.0	-5.0
34	Cn1nc(CC(=O)Nc2ncc(Br)s2)c2ccccc2c1=O	·	-5.2	·	-20.1
35	Cn1nc(CC(=O)Nc2ccc(OC(=O)c3ccccc3)cc2)c2ccccc2c1=O	·	·	·	·
36	COc1ccc(CCNC(=O)Cc2nn(C)c(=O)c3ccccc23)cc1OC	·	-12.1	·	6.1
37	COc1ccc(NC(=O)Cc2nn(C)c(=O)c3ccccc23)cc1	·	·	·	·
38	COc1ccc(NC(=O)COc2ccc(-c3nn(C)c(=O)c4ccccc34)cc2)cc1	0.0	2.7	-8.2	-0.3
39	Cn1nc(CC(=O)Nc2ccc3c(c2)CCC3)c2ccccc2c1=O	·	1.2	·	-9.7
40	COc1ccc(CN(C)C[C@H]2Oc3c(NS(=O)(=O)c4ccc(C)cc4)cccc3C(=O)N([C@H](C)CO)C[C@@H]2C)cc1	0.3	-11.4	-8.9	1.0
41	CC(C)NC(=O)N(C)C[C@@H]1Oc2ncc(C#CCc3ccccc3)cc2C(=O)N([C@@H](C)CO)C[C@@H]1C	0.0	10.2	13.4	22.7

No.	SIRT5 block	MLL AF4-AF9 inh	Yeast UUG start-2
31	6.1	-3.8	·
32	-3.2	7.5	1.7
33	0.5	0.3	·
34	·	·	·
35	·	·	i
36	·	·	-7.6
37	·	·	i
38	-10.8	-1.6	·
39	·	·	-3.5
40	0.6	0.6	·
41	-1.9	-0.6	·
